Measurements as given in patent US7008636B2, “2,3,5-substituted biphenyls useful in the treatment of insulin resistance and hyperglycemia” (Wyeth, priority 1998, dated 2006).

Amino acid sequences for entries named in this document (tags omitted). A change or cut given only in a name is not applied to a line headed by its entry.
UniProt P18031: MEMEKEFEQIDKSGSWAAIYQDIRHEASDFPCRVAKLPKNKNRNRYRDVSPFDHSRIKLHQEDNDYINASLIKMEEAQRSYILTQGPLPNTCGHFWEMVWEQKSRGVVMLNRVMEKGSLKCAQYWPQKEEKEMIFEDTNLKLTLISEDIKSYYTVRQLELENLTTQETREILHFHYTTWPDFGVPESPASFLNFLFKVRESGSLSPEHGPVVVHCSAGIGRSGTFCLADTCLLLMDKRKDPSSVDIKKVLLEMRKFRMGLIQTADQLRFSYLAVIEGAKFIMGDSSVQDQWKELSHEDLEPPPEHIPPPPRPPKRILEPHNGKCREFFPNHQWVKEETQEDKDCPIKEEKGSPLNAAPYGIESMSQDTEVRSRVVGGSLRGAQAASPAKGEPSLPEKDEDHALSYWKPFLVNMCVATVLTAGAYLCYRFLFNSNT

Biological target: recombinant, human protein tyrosine phosphatase (PTP) 1B (hPTP1B) (Homo sapiens, UniProt P18031)
Test: Inhibition of tri-phosphorylated insulin receptor dodecaphosphopeptide dephosphorylation by hPTP1B
Type: biochemical
Settings: 50 μM IR triphosphopeptide substrate, 5 min preincubation and 5 min reaction at 37° C., malachite green-ammonium molybdate phosphate detection

## 2-Hydroxy-4-[5′-(8-phenyl-octylcarbamoyl)-3,3″-bis-trifluoromethyl-[1,1′:3′1″]terphenyl-2′yloxymethyl]-benzoic acid
  IC50: 0.125 µM

## Phenylarsine oxide
  IC50: 39.7 µM
